The chains behind the UniProt entries cited, without tags or fusion partners.
UniProt P20272, whole entry: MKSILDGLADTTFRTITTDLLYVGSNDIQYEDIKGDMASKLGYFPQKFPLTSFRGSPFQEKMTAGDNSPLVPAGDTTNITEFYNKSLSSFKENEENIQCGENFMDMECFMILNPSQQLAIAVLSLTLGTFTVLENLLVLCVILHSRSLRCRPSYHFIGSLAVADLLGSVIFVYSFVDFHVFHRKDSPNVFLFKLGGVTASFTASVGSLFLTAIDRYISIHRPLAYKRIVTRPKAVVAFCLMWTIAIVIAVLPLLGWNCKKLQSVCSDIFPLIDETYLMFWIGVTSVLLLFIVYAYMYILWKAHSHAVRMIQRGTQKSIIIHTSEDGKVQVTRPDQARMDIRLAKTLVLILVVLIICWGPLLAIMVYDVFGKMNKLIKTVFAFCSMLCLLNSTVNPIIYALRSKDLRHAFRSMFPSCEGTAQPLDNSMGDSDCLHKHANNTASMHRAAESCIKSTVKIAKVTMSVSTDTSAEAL

In patent EP0670826B1, “FATTY ACID DERIVATIVES AND PHARMACEUTICAL COMPOSITIONS CONTAINING THEM” (YISSUM RESEARCH DEVELOPMENT COMPANY OF THE HEBREW …, priority 1992, dated 1994):

Molecular target: T1, cannabinoid receptor (Rattus norvegicus, UniProt P20272)
T1 construct: Synaptosomal membranes were prepared from rat whole brain-minus brainstem; from tissue; host or cells: rat whole brain minus brainstem, synaptosomal membranes (Sprague-Dawley males)
Assay: centrifugation radioligand binding assay with [3H]HU-243 on synaptosomal membranes

In the case of `CCCCC/C=C\C/C=C\C/C=C\C/C=C\CCCC(=O)NCCO` [Arachidonylethanolamide, 5,8,11,14-icosatetraenamide, (N,-2-hydroxyethyl)-(all-Z)], the Ki (compounds isolated from the brain and synthesized) is reported as 39 ± 5 nM and the Ki (inhibition of [3H]HU-243 binding, mean ± SE, n=3, listed as Synthetic anandamide) is reported as 39 ± 5 nM.
